In article PMC5354670, “Blockade of the malignant phenotype by β-subunit selective noncovalent inhibition of immuno- and constitutive proteasomes” (Oncotarget, 2017):

Experiments:
iCP, ChT-L activity = iCP, ChT-L activity (Homo sapiens, UniProt P28062); assay: Inhibition of ChT-L activity of iCP by oxadiazole A4 (unpublished result); settings: read-out: IC50 ChT-L activity, iCP, R1 = 4-BrC6H4, R2 = 3,4-di-MeOC6H3
cCP, ChT-L activity = settings: read-out: IC50 ChT-L activity, cCP; R1 = 4-BrC6H4, R2 = 3,4-di-MeOC6H3; cited from earlier work

IC50 (iCP, ChT-L activity): 140 nM
Compound: COc1ccc(-c2noc(CN(C(=O)COc3ccc(Br)cc3)C(C)C)n2)cc1OC
IC50 (cCP, ChT-L activity): 37 nM
